Biological target: LSD1-CoREST (Homo sapiens, UniProt O60341)
Format: binding

Kd: reduced affinity for LSD1
SMILES: COc1cc2nc(NCCCN(C)C)nc(N(C)C)c2cc1OC [MC3767, N^2-(3-(dimethylamino)propyl)-6,7-dimethoxy-N^4,N^4-dimethylquinazoline-2,4-diamine]
